Assay [1] addresses human type 5 17β-hydroxysteroid dehydrogenase (Homo sapiens, UniProt P42330). Nature of the assay: Inhibition of human type 5 17β-HSD activity in transfected 293 cells. As to conditions: read-out: Inhibition Type V 17B-HSD IC50. Type of assay: cell-based.
Assay [2] addresses human type 1 17β-hydroxysteroid dehydrogenase (Homo sapiens, UniProt P14061). Description: Enzymatic assay for type 1 17β-HSD. As to conditions: value in square brackets.
For assay [3], the system named is Shionogi mouse mammary carcinoma cells. Nature of the assay: Androgenic activity: stimulation of proliferation of Shionogi cells.
Assay [4] has the same test system. Nature of the assay: Antiandrogenic activity: inhibition of DHT-induced proliferation of Shionogi cells. Type of assay: cell-based. As to conditions: with DHT.
Assay [5] deals with ZR-75-1 cells. Nature of the assay: Estrogenic activity: stimulation of proliferation of ZR-75-1 cells. Type of assay: cell-based, human.
In assay [6] the test system is ZR-75-1 cells. Description: Antiestrogenic activity: inhibition of E2-induced proliferation of ZR-75-1 cells. Details: ZR-75-1 Activity, E2 / ZR-75-1 Activity E2 E^−6: unit not given here. As to conditions: for ZR-75-1 Activity E2 3E^−8: with E2, 3E^−8; for ZR-75-1 Activity E2 E^−6: with E2, E^−6.

The chains behind the UniProt entries cited, without tags or fusion partners.
UniProt P42330, whole entry: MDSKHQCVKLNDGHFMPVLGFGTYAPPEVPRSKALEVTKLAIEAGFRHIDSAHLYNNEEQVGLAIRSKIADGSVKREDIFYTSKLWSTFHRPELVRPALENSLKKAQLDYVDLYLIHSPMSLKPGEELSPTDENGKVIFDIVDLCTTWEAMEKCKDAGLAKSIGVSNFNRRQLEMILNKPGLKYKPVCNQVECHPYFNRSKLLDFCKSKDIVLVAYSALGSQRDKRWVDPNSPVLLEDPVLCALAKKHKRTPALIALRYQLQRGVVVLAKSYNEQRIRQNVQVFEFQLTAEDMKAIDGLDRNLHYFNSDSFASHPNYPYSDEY
UniProt P14061, whole entry: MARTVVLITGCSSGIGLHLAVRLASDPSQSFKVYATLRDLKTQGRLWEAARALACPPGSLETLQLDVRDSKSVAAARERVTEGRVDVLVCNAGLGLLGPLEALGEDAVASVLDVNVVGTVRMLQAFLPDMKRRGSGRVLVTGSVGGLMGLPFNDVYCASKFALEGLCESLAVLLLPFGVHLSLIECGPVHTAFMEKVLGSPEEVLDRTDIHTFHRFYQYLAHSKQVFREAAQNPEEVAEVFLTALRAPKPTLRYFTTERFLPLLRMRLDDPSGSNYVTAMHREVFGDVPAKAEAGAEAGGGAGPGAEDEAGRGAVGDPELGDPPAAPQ

Usually IC50 stands for the concentration that gives 50% inhibition.

As for `CC(=O)O[C@]1(C)C(=O)CCC2C3C=C(C)C4=CC(=O)CC[C@]4(C)C3CC[C@@]21C` (stereo partly shown), the half-maximal inhibitory concentration (IC50) in assay [1] was 38.5 nM. Further, in assay [2], the “Inhibition Type 1 17B-HSD Activity [% Inh. at 3 · 10^−6 M]” value was “[13] %”. Moreover, in assay [3], the “Androgenic Activity Shionogi Basal E^−6” value was −33 and the “Androgenic Activity Shionogi Basal E^−7” value is on record as −27. Also, the concentration for half-maximal inhibition (IC50) in assay [4] (read-out: Antiandrogenic Activity Shionogi DHT [IC50 (nM)], value in square brackets on second line) came out at 82 nM. Moreover, in assay [4], the “Antiandrogenic Activity Shionogi DHT E^−6” value is listed as −128 and the “Antiandrogenic Activity Shionogi DHT E^−7” value is recorded as −84. Further, in assay [5], the “ZR-75-1 Activity Basal E^−6” value is recorded as −12 and the “ZR-75-1 Activity Basal E^−8” value was −10. In addition, in assay [6], the “ZR-75-1 Activity E2 3E^−8” value is −23 and the “ZR-75-1 Activity E2 E^−6” value is −4.

Regarding `C[C@]12CCC(=O)C=C1C=CC1C2CC[C@]2(C)C(=O)C3(CCCCC3)CC12` (stereo partly shown), the 50% inhibitory concentration (IC50) in assay [1] stood at 66 nM. The “Inhibition Type 1 17B-HSD Activity [% Inh. at 3 · 10^−6 M]” value in assay [2] was “[27] %”. Also, in assay [3], the “Androgenic Activity Shionogi Basal E^−6” value is on record as 48 and the “Androgenic Activity Shionogi Basal E^−7” value was 22. In assay [4], the “Antiandrogenic Activity Shionogi DHT E^−6” value is given as 24 and the “Antiandrogenic Activity Shionogi DHT E^−7” value is listed as 0. Moreover, in assay [5], the “ZR-75-1 Activity Basal E^−6” value came to 0 and the “ZR-75-1 Activity Basal E^−8” value amounted to 0. Further, in assay [6], the “ZR-75-1 Activity E2 3E^−8” value is given as 0 and the “ZR-75-1 Activity E2 E^−6” value amounted to 0.

On to `CC1=CC2C(CC[C@@]3(C)C2CCC(=O)[C@@]3(C)OC(=O)Cc2ccccc2)[C@@]2(C)CCC(=O)C=C12` (stereo partly shown), for which the IC50 in assay [1] worked out at 14.6 nM. In addition, the “Inhibition Type 1 17B-HSD Activity [% Inh. at 3 · 10^−6 M]” value in assay [2] is “[56] %”. Besides, in assay [3], the “Androgenic Activity Shionogi Basal E^−6” value was −17 and the “Androgenic Activity Shionogi Basal E^−7” value worked out at 0. For the same compound, in assay [4], the “Antiandrogenic Activity Shionogi DHT E^−6” value was −100 and the “Antiandrogenic Activity Shionogi DHT E^−7” value was −13. In assay [5], the “ZR-75-1 Activity Basal E^−6” value is 0 and the “ZR-75-1 Activity Basal E^−8” value is reported as 0. Moreover, in assay [6], the “ZR-75-1 Activity E2 3E^−8” value is −34 and the “ZR-75-1 Activity E2 E^−6” value is −4.

For the origin of these results see US6541463B1, “Inhibitors of type 5 and type 3 17β-hydroxysteroid dehydrogenase and methods for their use” (Endorecherche, Inc., priority 1998, dated 2003).
